The numbers were not newly measured in patent publication US6409990B1, “Macromolecular carrier for drug and diagnostic agent delivery” (The Regents of the University of California, priority 1999, dated 2002), which cites them from elsewhere.

For this series the following is noted: in vivo.

As to “TC-HSA: labeled macromolecule, technetium-labeled human serum albumin”, the “clearance from the injection site” value is “fastest clearance” and the “half time of clearance from the injection site” value is 2.8 h.
